Binding of CDR-mutated scFvs to a peptide of the spike HR2 region

Reference: Engelhart et al. 2022, doi:10.1038/s41597-022-01779-4. File: FLAb, binding data.

Binding partner: SARS-CoV-2 spike HR2 peptide, sequence PDVDLGDISGINAS.

Parent scFv Ab-14: VH joined to VL by the linker GGGGSGGGGSGGGGS. Changes lie in the heavy chain CDRs alone.
VH: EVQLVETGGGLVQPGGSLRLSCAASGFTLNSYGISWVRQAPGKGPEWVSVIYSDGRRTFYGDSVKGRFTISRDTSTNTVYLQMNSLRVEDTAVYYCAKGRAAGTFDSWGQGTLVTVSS
VL: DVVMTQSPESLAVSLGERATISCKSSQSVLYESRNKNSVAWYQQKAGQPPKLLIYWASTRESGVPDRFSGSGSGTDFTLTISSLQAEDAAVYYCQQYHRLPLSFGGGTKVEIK

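The starting antibody came from a phage panning campaign against this peptide. In library AAYL49, one, two or three CDR residues were substituted; doubles and triples were drawn at random. In AlphaSeq, yeast of one mating type display the scFv and yeast of the other type display the target. Mating (16 h, 30 °C) was followed by selection of diploids and sequencing of their barcodes. A regression on co-assayed BCL2-family reference pairs converts the normalised counts of each replicate to an apparent Kd. Each pool was mated in three replicate cultures.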

Positions count from residue 1 of the parent VH; I34S puts S in place of I.
This list gathers variants with a substitution at I34 (VH, numbered from residue 1).
Each Kd is an estimate from the mating assay, the geometric mean of the replicates in which the pair was seen; lower is stronger.
A pair that was not seen in any replicate is written "no signal"; this usually means weak binding, but a binder can also be missed.
Nonspecific signal, from three strains lacking the peptide, appeared in 15% of pairings of library AAYL49, centred on 11 µM (5% of these signals below 680 nM); values are not corrected for it.

The variant I34S+S35N+A102I showed 350 nM (1 of 3 replicates). The variant I34E+S53M+V64A showed 3.6 µM (1 of 3 replicates). With S31Q+I34Q+T104Y the result was no signal (0 of 3 replicates). With I34L+D54N+S107N the result was 180 µM (1 of 3 replicates). The variant I34F+Y60D+S107M showed 40 µM (3 of 3 replicates). The variant I34T+T58A+S63L gave 21 µM (1 of 3 replicates). The variant T28H+I34T+S63M showed no signal (0 of 3 replicates).

With I34G+Y52A+G99A the result was no signal (0 of 3 replicates). The variant I34L+F59N+V64G gave 11 µM (1 of 3 replicates). The variant I34T+I51V+F59S gave 47 µM (3 of 3 replicates). The variant N30R+I34R+S63R showed no signal (0 of 3 replicates). With I34F+S35T+T58K the result was 7.2 µM (1 of 3 replicates). For L29Y+I34T, the assay gave 4.9 nM (3 of 3 replicates). For I34N+K65D+R100V, the assay gave no signal (0 of 3 replicates).

For I34V+S53K+D54K, the assay gave 14 µM (3 of 3 replicates). The variant I34S gave no signal (0 of 3 replicates). The variant Y32M+I34H+D54K gave no signal (0 of 3 replicates). With I34S+S35F+V50E the result was no signal (0 of 3 replicates). For I34N+R56A+A101I, the assay gave 11 µM (1 of 3 replicates). The variant I34Y+S35V+R100V showed no signal (0 of 3 replicates). The variant I34H+G55A+T58V showed 490 nM (1 of 3 replicates).

For I34K+G99E, the assay gave 23 µM (3 of 3 replicates). For F27D+N30C+I34M, the assay gave 19 µM (3 of 3 replicates). For I34V+G55M+G99C, the assay gave 32 µM (1 of 3 replicates). For I34R+A101D+D106C, the assay gave 11 µM (2 of 3 replicates). For I34V+S53W+Y60L, the assay gave 230 µM (3 of 3 replicates). For I34V+V64F+A101S, the assay gave 14 nM (3 of 3 replicates). For I34Y+Y52V+R56C, the assay gave no signal (0 of 3 replicates).

For S31W+G33R+I34V, the assay gave no signal (0 of 3 replicates). The variant I34H+S35Q+R56Y showed 3.0 µM (1 of 3 replicates).

The last 4 entries again:

With I34V+V64F+A101S the result was 14 nM (3 of 3 replicates).
With I34Y+Y52V+R56C the result was no signal (0 of 3 replicates).
With S31W+G33R+I34V the result was no signal (0 of 3 replicates).
With I34H+S35Q+R56Y the result was 3.0 µM (1 of 3 replicates).